{
  "source": "patent US7977369B2",
  "about": "“Medical compositions for intravesical treatment of bladder cancer” (Spectrum Pharmaceuticals, Inc., priority 2001, dated 2011)",
  "experiment_in_all_cases": "Chemosensitivity, one hour drug exposure, MTT assay, monolayer",
  "type_in_all_cases": "cell-based, human",
  "key": {"[1]": {"system": "EJ138", "description": "(§1) Cell culture and chemosensitivity studies. […] H460 (human NSCLC) cell line was obtained from the American Type Culture Collection (ATCC). HT-29 (human colon carcinoma), RT112/83 (human bladder carcinoma epithelial), EJ138 (human bladder carcinoma) and T24/83 (human bladder transitional cell carcinoma) cell lines were obtained from the European Collection of Animal Cell Cultures (ECACC). A2780 (human ovarian carcinoma) and BE (human colon carcinoma) cells were gifts from Dr T Ward (Paterson Institute, Manchester, UK). All cell lines were maintained as monolayer cultures in RPNII 1640 culture medium supplemented with fetal calf serum (10%), sodium pyruvate (2 mM), L-glutamine (2 mM), penicillin/streptomycin (50 IU/ml/50 jug/ml) and buffered with HEPES (25 mK). All cell culture materials were purchased from Gibco BRL (Paisley, UK). […] Calibration curves were conducted over a broad range of pH values in culture medium (pH 3.5 to 11) and the stability of the pH conditions monitored over a one hour incubation period at 37° C."}, "[2]": {"system": "A2780", "description": "as §1"}, "[3]": {"system": "HT-29", "description": "as §1"}, "[4]": {"system": "T24/83", "description": "as §1"}, "[5]": {"system": "H460", "description": "as §1"}, "[6]": {"system": "RT112", "description": "as §1"}, "[7]": {"system": "BE", "description": "as §1"}},
  "data": [
    {"smiles": "CO[C@@]12[C@H](COC(N)=O)C3=C(C(=O)C(C)=C(N)C3=O)N1C[C@@H]1N[C@@H]12", "note": "[MMC, Mitomycin C, reference compound]", "values": [
      {"measurement": "SR (selectivity ratio) = IC50 at pH 7.4/IC50 at pH 6.0", "setting": "[1]", "value": 1.14},
      {"measurement": "SR (selectivity ratio) = IC50 at pH 7.4/IC50 at pH 6.0", "setting": "[2]", "value": 1.71},
      {"measurement": "SR (selectivity ratio) = IC50 at pH 7.4/IC50 at pH 6.0", "setting": "[3]", "value": 2.10},
      {"measurement": "SR (selectivity ratio) = IC50 at pH 7.4/IC50 at pH 6.0", "setting": "[4]", "value": 1.02},
      {"measurement": "SR (selectivity ratio) = IC50 at pH 7.4/IC50 at pH 6.0", "setting": "[5]", "value": 4.50},
      {"measurement": "SR (selectivity ratio) = IC50 at pH 7.4/IC50 at pH 6.0", "setting": "[6]", "value": 1.67},
      {"measurement": "SR (selectivity ratio) = IC50 at pH 7.4/IC50 at pH 6.0", "setting": "[7]", "value": 1.59}
    ]}
  ]
}
